“And” between values parts separate entries of the source, which are not always exact repeats. Equal entries are not always repeated.
Columns and labels:
[1] = Iron catalyzed dihydrorhodamine oxidation (Fenton reaction); conditions: 50 μM dihydrorhodamine, 300 μM t-butyl hydroperoxide, 0.5 μM iron, 5 minutes
porcine 12-LO = porcine 12-LO (Sus scrofa, UniProt P16469); assay: In vitro lipoxygenase enzyme assay, 12-LO; conditions: semi-purified porcine enzyme, linoleic acid substrate
[2] = tested on: rat brains (ischemia damage); assay: Middle cerebral artery occlusion, infarct volume and neurological deficit; type: in vivo
neurons (ROS toxicity) = assay: t-butyl hydroperoxide induced toxicity in neurons (LDH release); type: cell-based, Wistar rat
Description: Primary neuronal cultures were prepared according to the method of Ventra et al. (J. Neurochem. 66:1752-1761, 1996). Fetuses were extracted by Cesarian section from a 17 day pregnant Wistar rat, and the feral brains were placed into phosphate buffered saline. The cortices were then dissected out, cut into small pieces and incubated with papain for nine minutes at 37° C. After this time the tissue was dissociated by passage through a fire polished Pasteur pipette, and the resultant cell suspension separated by centrifugation over a gradient consisting of 10 mg/ml bovine serum albumin and 10 mg/ml ovomucoid (a trypsin inhibitor) in Earls buffered salt solution. The pellet was then re-suspended in high glucose, phenol red free Dulbeco's modified Eagles medium containing 10% fetal bovine serum, 2 mM glutamine, 100 IU penicillin, and 100 μg/ml streptomycin (DMEM). Cells were counted, tested for vitality using the trypan blue exclusion test and seeded onto poly-D-lysine coated 24 multiwell plates. […]
To confirm that cannabinoids act as antioxidants in the intact cell, neurons were also incubated with the oxidant t-butyl hydroperoxide and varying concentrations of cannabidiol (FIG. 5A). […] Cell toxicity was assessed 18-20 hours after insult by measuring lactate dehydrogenase (LDH) release into the culture media. […]

Sequences of proteins named here, by UniProt entry; tags and fusion partners are left off.
UniProt P16469, whole entry: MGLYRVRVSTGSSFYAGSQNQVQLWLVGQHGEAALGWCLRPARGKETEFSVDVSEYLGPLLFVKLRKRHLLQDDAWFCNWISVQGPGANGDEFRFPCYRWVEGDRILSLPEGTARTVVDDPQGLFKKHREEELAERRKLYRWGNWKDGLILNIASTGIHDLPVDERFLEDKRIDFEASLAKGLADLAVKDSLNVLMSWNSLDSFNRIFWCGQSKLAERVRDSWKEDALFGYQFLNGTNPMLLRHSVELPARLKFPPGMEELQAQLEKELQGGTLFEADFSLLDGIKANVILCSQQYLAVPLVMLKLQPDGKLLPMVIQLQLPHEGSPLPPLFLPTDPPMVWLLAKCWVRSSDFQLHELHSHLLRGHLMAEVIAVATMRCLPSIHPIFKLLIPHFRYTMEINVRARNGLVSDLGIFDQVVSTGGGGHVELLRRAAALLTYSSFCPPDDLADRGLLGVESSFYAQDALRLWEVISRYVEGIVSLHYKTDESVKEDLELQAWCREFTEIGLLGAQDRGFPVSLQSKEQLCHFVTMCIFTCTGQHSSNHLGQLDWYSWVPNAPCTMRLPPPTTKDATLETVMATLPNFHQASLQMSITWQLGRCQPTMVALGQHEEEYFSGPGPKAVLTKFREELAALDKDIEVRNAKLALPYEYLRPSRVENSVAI
UniProt P18054, whole entry: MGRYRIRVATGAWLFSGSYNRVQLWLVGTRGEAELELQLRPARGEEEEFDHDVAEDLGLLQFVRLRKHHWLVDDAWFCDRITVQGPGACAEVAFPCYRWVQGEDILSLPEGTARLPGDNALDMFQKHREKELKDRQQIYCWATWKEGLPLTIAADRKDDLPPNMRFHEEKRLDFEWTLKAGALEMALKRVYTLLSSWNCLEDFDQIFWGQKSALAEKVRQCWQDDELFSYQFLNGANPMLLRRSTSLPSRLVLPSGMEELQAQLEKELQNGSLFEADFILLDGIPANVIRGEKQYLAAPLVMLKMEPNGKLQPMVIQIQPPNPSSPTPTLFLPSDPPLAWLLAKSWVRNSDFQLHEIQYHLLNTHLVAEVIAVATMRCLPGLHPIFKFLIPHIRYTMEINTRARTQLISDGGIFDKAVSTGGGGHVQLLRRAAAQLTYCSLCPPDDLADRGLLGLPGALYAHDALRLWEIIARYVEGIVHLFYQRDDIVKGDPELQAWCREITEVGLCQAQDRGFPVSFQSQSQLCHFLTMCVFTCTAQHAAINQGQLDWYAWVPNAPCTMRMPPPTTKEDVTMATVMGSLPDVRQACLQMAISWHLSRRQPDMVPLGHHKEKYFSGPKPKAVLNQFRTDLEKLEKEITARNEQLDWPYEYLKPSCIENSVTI
UniProt P12527, whole entry: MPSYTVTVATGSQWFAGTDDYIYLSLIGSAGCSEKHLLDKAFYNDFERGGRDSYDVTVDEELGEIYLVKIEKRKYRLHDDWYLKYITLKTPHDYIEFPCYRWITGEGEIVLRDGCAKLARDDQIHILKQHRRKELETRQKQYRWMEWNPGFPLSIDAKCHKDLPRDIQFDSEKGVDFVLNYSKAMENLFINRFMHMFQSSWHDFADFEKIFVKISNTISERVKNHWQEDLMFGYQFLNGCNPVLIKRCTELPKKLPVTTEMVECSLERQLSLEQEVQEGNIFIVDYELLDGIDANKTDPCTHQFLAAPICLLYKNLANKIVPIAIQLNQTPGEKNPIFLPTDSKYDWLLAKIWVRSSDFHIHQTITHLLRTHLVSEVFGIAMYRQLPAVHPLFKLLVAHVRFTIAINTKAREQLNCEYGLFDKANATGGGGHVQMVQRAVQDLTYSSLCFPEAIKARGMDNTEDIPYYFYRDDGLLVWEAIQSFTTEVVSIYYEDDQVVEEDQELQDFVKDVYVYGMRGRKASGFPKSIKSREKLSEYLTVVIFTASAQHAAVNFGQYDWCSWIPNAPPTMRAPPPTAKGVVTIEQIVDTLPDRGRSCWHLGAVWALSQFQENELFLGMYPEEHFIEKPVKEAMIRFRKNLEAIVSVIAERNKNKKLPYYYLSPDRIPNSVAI
UniProt P12530, whole entry: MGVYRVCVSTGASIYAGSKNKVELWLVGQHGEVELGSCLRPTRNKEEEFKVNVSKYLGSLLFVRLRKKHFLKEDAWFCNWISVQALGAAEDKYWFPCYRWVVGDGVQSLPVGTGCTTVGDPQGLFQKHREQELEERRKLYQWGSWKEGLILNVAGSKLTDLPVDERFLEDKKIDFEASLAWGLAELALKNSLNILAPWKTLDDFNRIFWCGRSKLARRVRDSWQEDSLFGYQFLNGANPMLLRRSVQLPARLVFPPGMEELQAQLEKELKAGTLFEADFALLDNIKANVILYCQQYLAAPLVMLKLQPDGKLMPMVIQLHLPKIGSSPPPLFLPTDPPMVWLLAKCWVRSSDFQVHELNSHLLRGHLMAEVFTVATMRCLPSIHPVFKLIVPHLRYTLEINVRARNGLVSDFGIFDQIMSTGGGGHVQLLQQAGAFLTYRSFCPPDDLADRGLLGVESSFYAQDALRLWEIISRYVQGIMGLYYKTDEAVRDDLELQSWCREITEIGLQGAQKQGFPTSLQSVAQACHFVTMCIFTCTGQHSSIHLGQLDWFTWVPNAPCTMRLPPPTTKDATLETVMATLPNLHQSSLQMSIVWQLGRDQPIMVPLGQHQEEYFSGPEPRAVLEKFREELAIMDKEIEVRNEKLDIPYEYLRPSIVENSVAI

[3] = target: 12-LO (type 2, platelets) (Homo sapiens, UniProt P18054); assay: Whole cell 12-HETE formation by human platelets; type: cell-based; conditions: FIG. 7C
Description: (§1) Human platelets and leukocytes were purified from buffy coat preparations (NIH Blood Bank) using a standard Ficoll based centrifugation method used in blood banks. Prior to use, cells were washed three times to eliminate contaminating cell types. Cultured rat basophillic leukemia cells (RBL-2H3) were used as a source of 5-lipoxygenase.
(§2) Cells were incubated with arachidonic acid and stimulated with the calcium ionophore A23187. Lipids were extracted and separated by reverse phase HPLC.
(§3) Cell pellets were triturated in DMEM culture media, aliquoted and pre-incubated for 15 minutes with 20 μM arachidonic acid and varying concentrations of cannabidiol and/or 40 μM nordihydroguaiaretic acid (a lipxygenase inhibitor). Platelets and leukocytes were also pre-incubated with 80 μM manoalide (Biomol) to prevent phospholipase A2 activation. Product formation was initiated by addition of 5 μM A23187 and incubation for 10 minutes at 37° C. At the end of the incubation, the reaction was stopped by addition of 15% 1M HCl and 10 ng/ml prostaglandin B2 (internal standard). Lipids were extracted with 1 volume of ethyl ether, which was dried under a stream of nitrogen. Samples were reconstituted in 50% acetonitrile:50% H2O and separated by reverse phase HPLC using a gradient running from 63% acetonitrile: 37% H2O:0.2% acetic acid to 90% acetonitrile (0.2% acetic acid) over 13 minutes.

NMDA receptor = conditions: cited from earlier work
5-LO = 5-LO (Rattus norvegicus, UniProt P12527); assay: Whole cell lipoxygenase activity, 5-LO in RBL-2H3 cells; type: cell-based; conditions: read-out: EC50 of 5-LO inhibition; cultured RBL-2H3 cells, arachidonic acid, A23187
Description: as §1, §2, §3

[4] = tested on: neurons (AMPA/kainate receptor mediated toxicity); assay: AMPA and kainate receptor mediated toxicity in cultured neurons (LDH release); type: cell-based, Wistar rat
[5] = tested on: cultured neurons (NMDAr mediated toxicity); assay: NMDA mediated toxicity in cultured neurons (LDH release); type: cell-based, Wistar rat; conditions: 250 μM glutamate for 10 minutes, LDH after 18 hours
[6] = tested on: 12-LO (type 1, leukocytes); assay: Whole cell 12-HETE formation by human leukocytes; type: cell-based; conditions: FIG. 7B
Description: as §1, §2, §3

rabbit 15-LO = rabbit 15-LO (Oryctolagus cuniculus, UniProt P12530); assay: In vitro lipoxygenase enzyme assay, 15-LO
[7] = Cyclic voltametry (oxidation potentials); type: physicochemical
Description: To investigate whether cannabinoids protect neurons against glutamate damage by reacting with ROS, the antioxidant properties of cannabidiol and other cannabinoids were assessed. Cyclic voltametry, a procedure that measures the ability of a compound to accept or donate electrons under a variable voltage potential, was used to measure the oxidation potentials of several natural and synthetic cannabinoids. These studies were performed with an EG&G Princeton Applied Research potentiostat/galvanostat (Model 273/PAR 270 software, NJ). The working electrode was a glassy carbon disk with a platinum counter electrode and silver/silver chloride reference. Tetraethylammonium chloride in acetonitrile (0.1 M) was used as an electrolyte. Cyclic voltametry scans were done from +0 to 1.8 V at scan rate of 100 mV per second. The reducing ability of cannabidiol (CBD), THC, HU-211, and BHT were measured in this fashion. Anandamide, a cannabinoid receptor ligand without a cannabinoid like structure, was used as a non-responsive control. Each experiment was repeated twice with essentially the same results.

[8] = cited from earlier work

C=C(C)[C@@H]1CCC(C)=C[C@H]1c1c(O)cc(CCCCC)cc1O
prevention of dihydrorhodamine oxidation [1]: prevented dihydrorhodamine oxidation
effect on 12-LO enzyme (porcine 12-LO): no effect
Volume of Infarct, Mean ([2]; 20 mg/kg ip 1 h before ischemia plus 10 mg/kg ip 8 hours later, mean of 7 animals, p = 0.016 vs control): 55.3 mm3
Behavioral Deficit Score, Mean ([2]; same dosing, mean of 7 animals, p = 0.015 vs control): 2.0
infarct size versus control ([2]; treated versus vehicle): approximately halved
neurological status of the animal ([2]; treated versus vehicle): substantial improvement
maximum protection against ROS toxicity (neurons (ROS toxicity); LDH 18-20 hours after insult): 88±9%
EC50 (neurons (ROS toxicity); read-out: EC50 of protection against ROS toxicity, LDH 18-20 hours after insult): 6 µM
effect on 12-LO (production of 12-HETE), platelets [3]: no effect
activity at the NMDA receptor (NMDA receptor): inactive
EC50 (5-LO): 1.92 µM
neuroprotection in presence of cannabinoid receptor antagonist SR-141716A ([4]; 5 μM compound plus SR-141716A (FIG. 2B)): Neither THC nor cannabidiol neuroprotection was affected
neuroprotection in AMPA/kainate receptor toxicity assays ([4]; 100 μM Glu, 5 μM compound (FIG. 2A)): similarly protective
maximum protection against AMPA/kainate mediated neurotoxicity ([4]; 100 μM glutamate, 50 μM cyclothiazide, 500 nM MK-801, 18-20 hours): 80±17%
attenuation of glutamate toxicity, comparison of antioxidants ([4]; 100 μM glutamate, equimolar 5 μM antioxidant (FIG. 5B)): significantly more protective than either α-tocopherol or ascorbate
protection with AMPA ligand fluorowillardiine or kainate ligand 4-methyl-glutamate ([4]; fluorowillardiine 1.5 μM or 4-methyl glutamate 10 μM, data not shown): Comparable results
EC50 ([4]; read-out: EC50 of prevention of AMPA/kainate mediated neurotoxicity, 100 μM glutamate, 50 μM cyclothiazide, 500 nM MK-801, 18-20 hours): 2 to 4 µM and 3.3 µM
maximum protection against NMDAr mediated neurotoxicity [5]: 88±9%
EC50 ([5]; read-out: EC50 of prevention of NMDAr mediated neurotoxicity, listed as cannabidiol): 2 to 4 µM and 3.5 µM
effect on 12-LO (production of 12-HETE), leukocytes [6]: no effect
mode of 15-LO inhibition (rabbit 15-LO; FIG. 6B): competitive inhibitor
EC50 (rabbit 15-LO; read-out: EC50 of 15-LO inhibition, semi-purified enzyme, linoleic acid substrate, absorption at 234 nm): 0.598 µM
oxidation profile by cyclic voltametry ([7]; data not shown): oxidation profiles similar to cannabidiol and THC
oxidation (electron donation) potential by cyclic voltametry ([7]; scan +0 to 1.8 V, 100 mV per second, acetonitrile): donated electrons at a similar potential as the antioxidant BHT
psychoactive effect ([8]; Pharm. Rev. 38:21-43, 1986): devoid of psychoactive effect
toxicity following chronic administration to healthy volunteers ([8]; chronic administration, even large acute doses of 700 mg/day): No signs of toxicity or serious side effects
